Values quoted from earlier work as cited in patent US20190091218A1 (priority 2016, published 2019).

Settings: standard 10 mg oral dose

For `CC(C)(O)c1ccccc1CC[C@@H](SCC1(CC(=O)O)CC1)c1cccc(/C=C/c2ccc3ccc(Cl)cc3n2)c1` [montelukast], the “mean Cmax” value is given as 353 ng/mL.
